Molecular target: T1, thermolysin (Bacillus thermoproteolyticus, UniProt P00800)
T1 sequence (P00800 233-548): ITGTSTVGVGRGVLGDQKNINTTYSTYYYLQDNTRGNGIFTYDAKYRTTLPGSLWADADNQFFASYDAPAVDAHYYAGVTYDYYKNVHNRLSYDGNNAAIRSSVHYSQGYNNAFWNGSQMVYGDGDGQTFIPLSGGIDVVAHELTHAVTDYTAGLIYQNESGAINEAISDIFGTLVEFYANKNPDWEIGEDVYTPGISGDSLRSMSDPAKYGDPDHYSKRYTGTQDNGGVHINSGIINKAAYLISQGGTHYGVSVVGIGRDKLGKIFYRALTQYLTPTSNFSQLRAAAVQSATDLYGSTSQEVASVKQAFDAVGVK
Assay: Proteolytic and thermal stability against thermolysin
Type: in vitro ADME
Conditions: thermolysin from Bacillus thermoproteolyticus Rokko; 65 °C, up to 12 h

asteropsin C [ASPC]
proteolytic and thermal stability against thermolysin: exceptional proteolytic and thermal stability
